Where a chain is given by its changes, count along the chain named.
B1: θ subunit of DNA polymerase III (natural protein)
chain: MLKNLAKLDQTEMDKVNVDLAAAGVAFKERYNMPVIAEAVEREQPEHLRSWFRERLIAHRLASVNLSRLPYEPKLK
B2: β2 sliding clamp (natural protein)
chain: MKFTVEREHLLKPLQQVSGPLGGRPTLPILGNLLLQVADGTLSLTGTDLEMEMVARVALVQPHEPGATTVPARKFFDICRGLPEGAEIAVQLEGERMLVRSGRSRFSLSTLPAADFPNLDDWQSEVEFTLPQATMKRLIEATQFSMAHQDVRYYLNGMLFETEGEELRTVATDGHRLAVCSMPIGQSLPSHSVIVPRKGVIELMRMLDGGDNPLRVQIGSNNIRAHVGDFIFTSKLVDGRFPDYRRVLPKNPDKHLEAGCDLLKQAFARAAILSNEKFRGVRLYVSENQLKITANNPEQEEAEEILDVTYSGAEMEIGFNVSYVLDVLNALKCENVRMMLTDSVSSVQIEDAASQSAAYVVMPMRL

Key:
εL = target: T1, εL (E. coli, UniProt P03007 1-243, T183L | M185L | A186P | F187L); assay: pull-down
T1 sequence: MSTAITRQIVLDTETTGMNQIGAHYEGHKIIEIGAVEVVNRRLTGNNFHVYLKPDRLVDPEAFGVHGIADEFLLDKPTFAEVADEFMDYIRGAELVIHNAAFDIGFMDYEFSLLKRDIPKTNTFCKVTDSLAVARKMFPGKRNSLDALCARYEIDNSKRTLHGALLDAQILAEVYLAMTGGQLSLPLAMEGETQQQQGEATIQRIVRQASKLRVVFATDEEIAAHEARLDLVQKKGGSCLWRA

His6-αGL = target: T2, His6-αGL (E. coli, UniProt P10443 1-1160, A921L | M923L | Val832Gly); assay: SEC
T2 sequence: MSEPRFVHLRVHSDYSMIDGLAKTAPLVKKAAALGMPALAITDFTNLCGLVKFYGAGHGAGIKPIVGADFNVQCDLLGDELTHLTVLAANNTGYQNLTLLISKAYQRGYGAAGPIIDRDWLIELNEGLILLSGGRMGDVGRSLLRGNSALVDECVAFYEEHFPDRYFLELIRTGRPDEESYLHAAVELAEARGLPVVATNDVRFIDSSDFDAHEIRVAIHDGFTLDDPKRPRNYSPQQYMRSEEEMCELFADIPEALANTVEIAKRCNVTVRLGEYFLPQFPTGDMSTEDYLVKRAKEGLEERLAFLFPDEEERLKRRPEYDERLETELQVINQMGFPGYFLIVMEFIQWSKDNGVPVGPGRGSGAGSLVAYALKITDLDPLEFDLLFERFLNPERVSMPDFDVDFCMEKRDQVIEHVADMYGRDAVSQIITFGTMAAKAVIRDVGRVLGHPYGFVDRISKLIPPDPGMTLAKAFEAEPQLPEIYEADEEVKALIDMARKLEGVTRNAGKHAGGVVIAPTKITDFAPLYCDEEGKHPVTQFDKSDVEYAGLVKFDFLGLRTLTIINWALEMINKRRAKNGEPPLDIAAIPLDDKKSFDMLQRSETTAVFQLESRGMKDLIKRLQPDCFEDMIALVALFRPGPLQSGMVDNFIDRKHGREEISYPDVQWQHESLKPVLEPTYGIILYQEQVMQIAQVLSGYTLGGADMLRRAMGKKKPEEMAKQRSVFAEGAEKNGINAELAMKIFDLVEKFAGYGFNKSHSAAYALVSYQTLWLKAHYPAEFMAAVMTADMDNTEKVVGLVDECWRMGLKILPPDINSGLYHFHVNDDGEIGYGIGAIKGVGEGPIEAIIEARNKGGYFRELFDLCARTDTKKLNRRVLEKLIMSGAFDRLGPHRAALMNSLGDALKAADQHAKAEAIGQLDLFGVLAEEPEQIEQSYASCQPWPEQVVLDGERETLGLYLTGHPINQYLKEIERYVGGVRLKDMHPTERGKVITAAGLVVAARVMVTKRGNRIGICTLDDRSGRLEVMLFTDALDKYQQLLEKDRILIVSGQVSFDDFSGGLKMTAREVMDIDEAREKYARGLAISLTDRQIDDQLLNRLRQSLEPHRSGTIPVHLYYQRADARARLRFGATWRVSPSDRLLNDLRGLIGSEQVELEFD

αL = target: T3, αL (E. coli, UniProt P10443 1-1160, A921L | M923L); assay: anion-exchange chromatography
T3 sequence: T2 sequence with G832V

Binder | binding result (εL) | binding result (His6-αGL) | binding result (αL)
B1 | binds | – | –
B2 | – | binds | binds
